What was measured:
para-influenza = assay: inhibitory effect on replication of RNA viruses: para-influenza virus; assay type: cell-based
VMW = assay: inhibitory effect on DNA viruses: VMW; assay type: cell-based
HSV-1 = assay type: cell-based
HSV-2 = assay type: cell-based
Sindbis = assay: inhibitory effect on replication of RNA viruses: Sindbis; assay type: cell-based, Sindbis virus
CMV = assay: anti-CMV test, plaque formation and cell death in human embryonic lung (HEL) fibroblasts; assay type: cell-based, human cytomegalovirus (strain AD169 and Davis strain)
FIV = assay: anti-FIV test, reverse transcriptase activity in cat thymocytes; assay type: cell-based
VSV = assay type: cell-based
plasma = assay: anticoagulant action determined as APTT; assay type: biochemical
Description: The compounds were dissolved in PBS of pH 7.2 and 30 μl were added to 270 μl of plasma.
APTT=activated partial thromboplastin time (seconds) APTT was determined electromechanically using standard methods.

Coxsackie = assay: inhibitory effect on replication of RNA viruses: Coxsackie virus; assay type: cell-based
Reo-virus = assay: inhibitory effect on replication of RNA viruses: reovirus; assay type: cell-based
Sendai = Sendai virus: fusion of viral membrane with erythrocyte ghosts, liposomes and cells (R15 dequenching); assay type: biochemical
HSV field = assay: inhibitory effect on DNA viruses: HSV field; assay type: cell-based
Semliki Forest = assay: inhibitory effect on replication of RNA viruses: Semliki Forest virus; assay type: cell-based
SIV = assay: inhibitory effect on SIV; assay type: cell-based; parameters: key: +: activity determined

**Q.** How did the “Inhibitory effect (IC50 μg/ml) on the replication of RNA viruses, para-influenza” value (para-influenza) turn out when “Aco-HSA: reaction product of human serum albumin and aconitic anhydride (anhydride of cis- or trans-prop-1-ene-1,2,3-tri-carboxylic acid)” was run?
**A.** > 400 µg/mL

**Q.** And the “Inhibitory effect (IC50 μg/ml) on DNA viruses, VMW” value (VMW)?
**A.** > 400 µg/mL

**Q.** What about the “Inhibitory effect (IC50 μg/ml) on DNA viruses, HSV-1” value (HSV-1) of the same substance?
**A.** > 400 µg/mL

**Q.** And the “Inhibitory effect (IC50 μg/ml) on DNA viruses, HSV-2” value (HSV-2)?
**A.** > 400 µg/mL

**Q.** What about the “Inhibitory effect (IC50 μg/ml) on the replication of RNA viruses, Sindbis” value (Sindbis) of the same substance?
**A.** > 400 µg/mL

**Q.** What about the “Inhibitory effect (IC50 μg/ml) on DNA viruses, CMV” value (CMV) of the same substance?
**A.** > 400 µg/mL

**Q.** And the “Inhibitory effect (IC50 μg/ml) on retroviruses, FIV” value (FIV)?
**A.** < 0.01 µg/mL

**Q.** And the “Inhibitory effect (IC50 μg/ml) on the replication of RNA viruses, VSV” value (VSV)?
**A.** > 400 µg/mL

**Q.** What about the “Anticoagulant action, APTT” value (plasma; 0.01 μg/ml) of the same substance?
**A.** 36.8 s

**Q.** And the “Anticoagulant action, APTT” value (plasma; 0.1 μg/ml)?
**A.** 37.8 s

**Q.** And the “Anticoagulant action, APTT” value (plasma; 1 μg/ml)?
**A.** 37.0 s

**Q.** And the “Anticoagulant action, APTT” value (plasma; 3 μg/ml)?
**A.** 35.9 s

**Q.** And the “Anticoagulant action, APTT” value (plasma; 5 μg/ml)?
**A.** 36.2 s

**Q.** And the “Anticoagulant action, APTT” value (plasma; 10 μg/ml)?
**A.** 33.0 s

**Q.** What about the “Anticoagulant action, APTT” value (plasma; 20 μg/ml) of the same substance?
**A.** 35.1 s

**Q.** What about the “Anticoagulant action, APTT” value (plasma; 30 μg/ml) of the same substance?
**A.** 37.8 s

**Q.** What about the “Anticoagulant action, APTT” value (plasma; 100 μg/ml) of the same substance?
**A.** 51.1 s

**Q.** And the “anticoagulant activity as side effect” value (plasma; in words)?
**A.** slight anticoagulant activity at high concentrations

**Q.** And the “Inhibitory effect (IC50 μg/ml) on the replication of RNA viruses, Coxsackie” value (Coxsackie)?
**A.** > 400 µg/mL

**Q.** What about the “Inhibitory effect (IC50 μg/ml) on the replication of RNA viruses, Reo-virus” value (Reo-virus) of the same substance?
**A.** > 400 µg/mL

**Q.** What about the “Inhibitory effect (IC50 μg/ml) on the replication of RNA viruses, Sendai” value (Sendai) of the same substance?
**A.** > 400 µg/mL

**Q.** What about the “Inhibitory effect (IC50 μg/ml) on DNA viruses, HSV field” value (HSV field) of the same substance?
**A.** > 400 µg/mL

**Q.** And the “Inhibitory effect (IC50 μg/ml) on the replication of RNA viruses, Semliki Forest” value (Semliki Forest)?
**A.** > 400 µg/mL

**Q.** And the “Inhibitory effect on retroviruses, SIV” value (SIV)?
**A.** +
